Experimental data: ChEMBL document CHEMBL2150891, “Compounds and Their Use as BACE Inhibitors: Patent Highlight” (ACS Med Chem Lett, 2012)

The chains behind the UniProt entries cited, without tags or fusion partners. Where a name states a change or a piece, a line headed by the entry shows the natural chain unless it says otherwise.
UniProt P56817: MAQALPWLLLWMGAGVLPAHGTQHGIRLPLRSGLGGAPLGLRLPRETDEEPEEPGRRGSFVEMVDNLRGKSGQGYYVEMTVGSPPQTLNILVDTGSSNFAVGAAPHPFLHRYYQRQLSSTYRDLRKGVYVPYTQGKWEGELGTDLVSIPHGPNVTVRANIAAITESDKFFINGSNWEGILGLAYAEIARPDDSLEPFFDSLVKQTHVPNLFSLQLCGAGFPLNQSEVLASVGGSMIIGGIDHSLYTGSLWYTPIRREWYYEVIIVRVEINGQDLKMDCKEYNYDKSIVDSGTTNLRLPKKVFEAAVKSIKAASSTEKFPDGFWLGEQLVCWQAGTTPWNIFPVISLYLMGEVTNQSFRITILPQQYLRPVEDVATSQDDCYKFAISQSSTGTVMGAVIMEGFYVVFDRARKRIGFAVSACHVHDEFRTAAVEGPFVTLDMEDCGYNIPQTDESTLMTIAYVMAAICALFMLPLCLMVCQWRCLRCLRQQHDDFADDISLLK

Target: Beta-secretase 1 (Homo sapiens, UniProt P56817)
Assay: Inhibition of BACE by secreted APPbeta release assay

IC50: 0.72 nM
Compound: CO[C@H]1CC[C@]2(CC1)Cc1ccc(-c3cc(Cl)cc(C#N)c3)cc1C21N=C(C)C(N)=N1 (stereo partly specified)
